Results reported in ChEMBL document CHEMBL1134494, “2-Amino-6-arylsulfonylbenzonitriles as non-nucleoside reverse transcriptase inhibitors of HIV-1” (J Med Chem, 2001).

Target: Human immunodeficiency virus type 1 reverse transcriptase (Human immunodeficiency virus 1, UniProt Q72547)
Test: Inhibitory activity against HIV-1 reverse transcriptase
In short: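 Recombinant HIV RT at 1 nM was combined with 40 nM Eu-chelate-labeled biotinylated DNA primer/RNA template and 100 nM Cy5-dUTP. Reactions were started with enzyme. Time-resolved FRET was read with excitation at 340 nm and emission at 665 nm over 30 min.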

## Cc1cc(C)cc(S(=O)(=O)c2cccc(N)c2C#N)c1
  IC50: 7 nM
